For test [1], the target named is human dopamine D2,L receptors (Homo sapiens, UniProt P14416). Nature of the test: cell-based.
For test [2], the target named is T1, serotonin reuptake sites (Rattus norvegicus, UniProt P31652).
T1 construct: the cerebral hemispheres were rapidly removed and a P2-synaptosomal fraction was prepared; from tissue; host or cells: rat (Wistar) cerebral hemispheres, P2-synaptosomal fraction
The test is described as follows: In vitro functional inhibition of [3H]-serotonin reuptake in rat brain synaptosomes. The class given is biochemical.

Protein sequences, listed by entry. Tags and fused reporters are not part of them.
UniProt P14416, whole entry: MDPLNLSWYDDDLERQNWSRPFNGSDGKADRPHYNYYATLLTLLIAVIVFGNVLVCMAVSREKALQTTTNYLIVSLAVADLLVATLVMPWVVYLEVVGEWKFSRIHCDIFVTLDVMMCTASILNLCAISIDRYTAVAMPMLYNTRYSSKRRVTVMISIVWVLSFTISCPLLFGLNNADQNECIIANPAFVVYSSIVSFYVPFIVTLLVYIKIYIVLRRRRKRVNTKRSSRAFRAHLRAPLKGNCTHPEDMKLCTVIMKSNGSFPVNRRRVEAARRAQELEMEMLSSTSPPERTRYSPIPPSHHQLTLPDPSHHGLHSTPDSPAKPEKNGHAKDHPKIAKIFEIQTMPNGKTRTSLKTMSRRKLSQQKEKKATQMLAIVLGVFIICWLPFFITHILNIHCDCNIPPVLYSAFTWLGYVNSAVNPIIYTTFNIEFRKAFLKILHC
UniProt P31652, whole entry: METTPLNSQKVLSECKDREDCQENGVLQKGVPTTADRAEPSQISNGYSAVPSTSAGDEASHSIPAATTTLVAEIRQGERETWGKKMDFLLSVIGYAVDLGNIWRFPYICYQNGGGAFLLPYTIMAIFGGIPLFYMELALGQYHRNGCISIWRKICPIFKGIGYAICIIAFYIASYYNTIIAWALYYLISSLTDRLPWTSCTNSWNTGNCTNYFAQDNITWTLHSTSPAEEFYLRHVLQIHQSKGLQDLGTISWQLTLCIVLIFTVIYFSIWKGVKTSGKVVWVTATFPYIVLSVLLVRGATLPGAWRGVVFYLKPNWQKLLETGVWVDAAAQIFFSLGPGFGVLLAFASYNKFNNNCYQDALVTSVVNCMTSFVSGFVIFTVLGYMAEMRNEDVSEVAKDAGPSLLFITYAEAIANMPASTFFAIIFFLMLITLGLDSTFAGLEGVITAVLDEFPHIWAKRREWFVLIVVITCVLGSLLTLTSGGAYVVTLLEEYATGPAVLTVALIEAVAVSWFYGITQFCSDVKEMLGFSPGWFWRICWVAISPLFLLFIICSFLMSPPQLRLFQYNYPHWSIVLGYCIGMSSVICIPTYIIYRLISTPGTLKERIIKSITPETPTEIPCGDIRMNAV

Test [3] has as its target noradrenaline reuptake sites (Rattus norvegicus, UniProt Q9WTR4). The test is described as follows: In vitro functional inhibition of [3H]-noradrenalin reuptake in rat hypothalamus synaptosomes.

The term EC50 denotes the concentration at which the effect is half-maximal. The term IC50 denotes the midpoint of a concentration-inhibition curve.

In test [1], `CCCN1CCC[C@@H](c2cccc(O)c2)C1` [preclamol] had an EC50 of 398 nM. Compound `Fc1ccc([C@@H]2CCNC[C@H]2COc2ccc3c(c2)OCO3)cc1` had an IC50 in test [2] of 39.8 nM.

On to `CCCN1CCC[C@@H]2Cc3n[nH]cc3C[C@H]21` [quinpirole], for which the IC50 in test [2] is greater than 10000 nM. The “NA uptake pIC50” value in test [3] was less than 5.0.
